# p53 reactivator: mutant p53 re-activation in reporter cells; H1299 p53-A138V BP100-luciferase reporter, luminescence, 24 h; Potency, µM (titrated, usually from 92.2 µM), for inactives: at the highest dose activity change, positive = activation, most hits filed as activators; actives 0.063% (n = 320,000); AID 504706; also: potency is read from the fitted curve at half-maximal effect; % of control where 0% means no effect; nearly all actives have a fitted effect of over 45% in size
#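 H1299 (p53-null), stable ts p53-A138V + BP100-Luc; 1000 cells/well, Opti-MEM/10% FBS; cpd 4 pt, 1:5; 24 h, 37 deg C, 5% CO2; detection reagent 10 min RT; luminescence.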
# A549 tox: A549 cytotoxicity, counter-screen for Nrf2 inhibitors. actives 0.16% (n = 390,000). Potency, µM (top dose mostly 46 µM), for the others: at the top dose activity change, negative = cytotoxicity, actives largely listed as inhibitors. AID 504648. A549 ARE-Fluc cells, CellTiter-Fluor viability, 18-24 h; also: potency is read from the fitted curve at half-maximal effect; % is scaled to controls: 0 for no effect and ±100 for the full control effect
#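 A549 ARE-Fluc cells in 5% FBS OPTI-MEM, 5000 cells/well, rested 2 h then exposed to compounds in concentration-response for 18-24 h at 37 °C. Viability by CellTiter-Fluor fluorescence (Ex 405/Em 525) after 30 min; luciferase luminescence (BugLite, 15 min, RT) read afterwards.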
# Nrf2 activator: Nrf2 pathway activation; AREc32 ARE-luciferase reporter (MCF7-derived line), luminescence, 24 h; Potency, µM (series often up to 46.1 µM), inactives show top-dose activation, usual class: activators; actives 0.31% (n = 410,000); AID 624171; also: potency is read from the fitted curve at half-maximal effect; % of control where 0% means no effect; nearly all actives have a fitted effect of over 65% in size
#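 Luciferase luminescence (Steady-Glo, 30 min at room temperature) served as the read-out of ARE activation in AREc32 cells treated with compounds for 24 hr at 37 deg C.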
# ClpP mod: qHTS Assay for Activators of ClpP | ATP-dependent Clp protease proteolytic subunit (Bacillus subtilis (strain 168)), P80244 | AID 651965, 2013 | Potency, µM (doses to about 57.5 µM), inactives show top-dose activity change, negative = active | actives 1.9% (n = 340,000) | purified B. subtilis ClpP, FRET peptide cleavage, 20 min; active = well fitted falling curve with a large enough effect; inconclusive = small, poorly fitted or top-dose-only effect; inactive = no such curve, though single readings can be large or run the other way; also: potency is read from the fitted curve at half-maximal effect; the source files actives as falling curves though it sought activators and does not explain the sign; nearly all actives have a fitted effect of over 65% in size
#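 Purified B. subtilis ClpP, 10 microg/mL final in Tris/HCl pH8 with KCl, BSA, glycerol and Tween-20, cleaved an Abz/nitrotyrosine-quenched decapeptide. Fluorescence (ex 320, em 430) was read at 0 and 20 min at room temperature. Delta was normalized to 5.8 microM ADEP and DMSO/no-enzyme controls.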
# Nrf2 inh: inhibitors of Nrf2 signaling; actives 2.1% (n = 360,000); Potency, µM (highest dose often 46 µM), for inactives: at the highest dose activity change, negative = inhibition, most hits filed as inhibitors; A549 ARE-Fluc reporter, luciferase luminescence, 18-24 h; also: potency is read from the fitted curve at half-maximal effect; % is scaled to controls: 0 for no effect and ±100 for the full control effect; nearly all actives have a fitted effect of over 60% in size
#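 Quantitative HTS in A549 cells stably bearing an antioxidant response element-firefly luciferase construct. Inhibition of Nrf2-driven transcription was scored by luminescence after 18-24 h of compound exposure at 37 °C.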
# miR-21 reporter: miR-21 reporter, rising signal; HeLa miR-21 FLuc reporter, luciferase, 48 h; Potency, µM (top dose mostly 38.3 µM), without a hit: at the highest dose reporter change, positive = more light; 340,000 tested, under 10 active; active = well fitted rising curve with a large enough effect; inconclusive = small, poorly fitted or top-dose-only effect; inactive = no such curve, though single readings can be large or run the other way;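 further: % of control where 0% means no effect; miR-21 action dims this reporter so a rising signal means less miR-21 action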
#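 HeLa cells endogenously expressing miR-21, stably carrying CMV-driven firefly luciferase with a downstream miR-21 binding site, 2000 cells/well. Titrations up to approximately 40 uM, 48 hours; luciferase luminescence read.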
# Starred values were filed as active, the others as inactive; ? = inconclusive; nt = no result given. In the library only some 3.7% were active in any assay of this set; here they are far more common. Unless noted, calls follow the shape of the dose curve; as a rule, active = well fitted curve in the direction sought with a large enough effect; inconclusive = small, poorly fitted or top-dose-only effect, or another doubt; inactive = no such curve, though single readings can be large; an effect the other way counts as inactive or inconclusive.
No.	SMILES	p53 reactivator	A549 tox	Nrf2 activator
1	CCOc1ccc(CNC(=O)CSc2nnc(C)c3c(C)n(-c4ccc(Cl)cc4)nc23)cc1	nt	12%	-1%
2	CCCOc1ccc2nc(C)c(CCC)c(SC(=N)N)c2c1	-2%	-2%	-1%
3	CCOC(=O)CSc1nc(C)c2cc(C)c(C)cc2n1	1%	-9%	3%
4	CCOC(=O)CSc1nc(C)c2cc(OC)ccc2n1	23%	-1%	0%
5	CCC(=O)N/C(N)=N/c1nc(C)c2cc(OC)ccc2n1	37%	1%	6%
6	COc1ccc2nc(/N=C(\N)NC(=O)C(C)(C)C)nc(C)c2c1	?	-5%	1%
7	CCCc1c(C)nc2ccc(OC)cc2c1SCCC(=O)O	3%	-5%	3%
8	N#Cc1nc(Nc2cccc(C(F)(F)F)c2)nc(NC2CCCC2)n1	nt	-4%	nt
9	CC[C@]12c3[nH]c4ccc(Cl)cc4c3CCN1C(=O)[C@@H](CC(=O)NCCC1=CCCCC1)C[C@@H]2C(=O)N1CCN(C(=O)c2ccco2)CC1	5%	?	0%
10	COc1ccc2[nH]c3c(c2c1)CCN1C(=O)C(CC(=O)NCCN2CCOCC2)C[C@H](C(=O)N2CCCCC2)[C@@]31CCc1ccccc1 (stereo not given in full)	2%	-3%	0%
11	COc1ccc2[nH]c3c(c2c1)CCN1C(=O)C(CC(=O)NCC24CC5CC(CC(C5)C2)C4)C[C@H](C(=O)N2CCOCC2)[C@@]31CCC1CCCC1 (stereo not given in full)	1%	-20%	-1%
12	COc1ccc2[nH]c3c(c2c1)CCN1C(=O)C(CC(=O)NCCC2=CCCCC2)C[C@H](C(=O)N2CCCCC2)[C@@]31CCc1ccccc1 (stereo not given in full)	4%	-25%	0%

No.	ClpP mod	Nrf2 inh	miR-21 reporter
1	1%	?	-2%
2	-4%	2%	-5%
3	nt	7%	-3%
4	14µM*	7%	-22%
5	3.2µM*	27%	-28%
6	32µM*	2%	-40%
7	13µM*	12%	-14%
8	nt	-6%	nt
9	1%	16µM*	nt
10	1%	-2%	nt
11	-1%	21µM*	nt
12	0%	18µM*	nt

# Brought forward from above: 3 entries; new compounds follow.
No.	SMILES	p53 reactivator	A549 tox	Nrf2 activator
10	COc1ccc2[nH]c3c(c2c1)CCN1C(=O)C(CC(=O)NCCN2CCOCC2)C[C@H](C(=O)N2CCCCC2)[C@@]31CCc1ccccc1 (stereo not given in full)	2%	-3%	0%
11	COc1ccc2[nH]c3c(c2c1)CCN1C(=O)C(CC(=O)NCC24CC5CC(CC(C5)C2)C4)C[C@H](C(=O)N2CCOCC2)[C@@]31CCC1CCCC1 (stereo not given in full)	1%	-20%	-1%
12	COc1ccc2[nH]c3c(c2c1)CCN1C(=O)C(CC(=O)NCCC2=CCCCC2)C[C@H](C(=O)N2CCCCC2)[C@@]31CCc1ccccc1 (stereo not given in full)	4%	-25%	0%
13	CCN(CC)C(=O)[C@H]1C[C@H](CC(=O)NCC23CC4CC(CC(C4)C2)C3)C(=O)N2CCc3c([nH]c4ccc(Cl)cc34)[C@]12C	6%	-23%	0%
14	Cc1ccc(S(=O)(=O)N2[C@@H](c3ccc(Br)cc3)C(C(=O)O)=CC[C@H]2c2cccs2)cc1	6%	-20%	2%
15	Cc1ccc([C@H]2C(C(=O)O)=CC[C@@H](c3cccs3)N2S(=O)(=O)c2ccc(C)cc2)cc1	25%	?	2%
16	Cc1ccc(S(=O)(=O)N2[C@@H](c3ccc(C(C)(C)C)cc3)C(C(=O)O)=CC[C@H]2c2ccc(Cl)cc2)cc1	5%	-23%	0%
17	CCc1ccc([C@@H]2CC=C(C(=O)O)[C@H](c3ccc(C(C)(C)C)cc3)N2S(=O)(=O)c2ccc(C)cc2)cc1	1%	?	1%
18	Cc1ccc(S(=O)(=O)N2[C@@H](c3ccc(C(C)(C)C)cc3)C(C(=O)O)=CC[C@H]2c2ccc(C(C)C)cc2)cc1	-7%	?	3%
19	CCCN1C(=O)C2(c3ccccc31)c1c(oc3ccc(F)cc3c1=O)C(=O)N2CCCOC(C)C (stereo not given)	nt	4%	0%
20	O=C(Nc1ccc(F)cc1)C(c1ccncc1)N1CCN(CC(=O)N2CCCC2)CC1 (stereo not given)	nt	nt	nt

No.	ClpP mod	Nrf2 inh	miR-21 reporter
10	1%	-2%	nt
11	-1%	21µM*	nt
12	0%	18µM*	nt
13	-4%	23µM*	nt
14	-3%	?	nt
15	-4%	26µM*	nt
16	0%	18µM*	nt
17	3%	21µM*	nt
18	0%	2.9µM*	nt
19	-2%	-22%	1%
20	-10%	nt	nt
